Source: US20220049021A1 (Gilead, published 2022)

Target: T1, recombinant human C1q protein (Fitzgerald) (human)
T1 construct: also called human recombinant complement protein, C1q
Experiment: ELISA; test protein immobilised in serial dilution, recombinant human C1q added, anti-C1q-HRP

B1: human FLT3-ligand human IgG4 (S228P/L235E) fusion protein (SEQ ID NO:3) (Fc fusion)
chain: TQDCSFQHSPISSDFAVKIRELSDYLLQDYPVTVASNLQDEELCGGLWRLVLAQRWMERLKTVAGSKMQGLLERVNTEIHFVTKCAFQPPPSCLRFVQTNISRLLQETSEQLVALKPWITRQNFSRCLELQCQPDSSTLPPPWSPRPLEATAPTAPQESKYGPPCPPCPAPEFEGGPSVFLFPPKPKDTLMISRTPEVTCVVVDVSQEDPEVQFNWYVDGVEVHNAKTKPREEQFNSTYRVVSVLTVLHQDWLNGKEYKCKVSNKGLPSSIEKTISKAKGQPREPQVYTLPPSQEEMTKNQVSLTCLVKGFYPSDIAVEWESNGQPENNYKTTPPVLDSDGSFFLYSRLTVDKSRWQEGNVFSCSVMHEALHNHYTQKSLSLSLGK
notes: also called FLT3L ECD-hG4 S228P/L235E
Question: Does B1 bind?
Answer: Result: no binding (tested: 94 nM (top of the titration))
